Experimental data from the Kinase Knowledgebase extract (Sharma et al. 2016).

By UniProt entry, the sequences of proteins in these tests, tags left out.
UniProt P00533, whole entry, looked up: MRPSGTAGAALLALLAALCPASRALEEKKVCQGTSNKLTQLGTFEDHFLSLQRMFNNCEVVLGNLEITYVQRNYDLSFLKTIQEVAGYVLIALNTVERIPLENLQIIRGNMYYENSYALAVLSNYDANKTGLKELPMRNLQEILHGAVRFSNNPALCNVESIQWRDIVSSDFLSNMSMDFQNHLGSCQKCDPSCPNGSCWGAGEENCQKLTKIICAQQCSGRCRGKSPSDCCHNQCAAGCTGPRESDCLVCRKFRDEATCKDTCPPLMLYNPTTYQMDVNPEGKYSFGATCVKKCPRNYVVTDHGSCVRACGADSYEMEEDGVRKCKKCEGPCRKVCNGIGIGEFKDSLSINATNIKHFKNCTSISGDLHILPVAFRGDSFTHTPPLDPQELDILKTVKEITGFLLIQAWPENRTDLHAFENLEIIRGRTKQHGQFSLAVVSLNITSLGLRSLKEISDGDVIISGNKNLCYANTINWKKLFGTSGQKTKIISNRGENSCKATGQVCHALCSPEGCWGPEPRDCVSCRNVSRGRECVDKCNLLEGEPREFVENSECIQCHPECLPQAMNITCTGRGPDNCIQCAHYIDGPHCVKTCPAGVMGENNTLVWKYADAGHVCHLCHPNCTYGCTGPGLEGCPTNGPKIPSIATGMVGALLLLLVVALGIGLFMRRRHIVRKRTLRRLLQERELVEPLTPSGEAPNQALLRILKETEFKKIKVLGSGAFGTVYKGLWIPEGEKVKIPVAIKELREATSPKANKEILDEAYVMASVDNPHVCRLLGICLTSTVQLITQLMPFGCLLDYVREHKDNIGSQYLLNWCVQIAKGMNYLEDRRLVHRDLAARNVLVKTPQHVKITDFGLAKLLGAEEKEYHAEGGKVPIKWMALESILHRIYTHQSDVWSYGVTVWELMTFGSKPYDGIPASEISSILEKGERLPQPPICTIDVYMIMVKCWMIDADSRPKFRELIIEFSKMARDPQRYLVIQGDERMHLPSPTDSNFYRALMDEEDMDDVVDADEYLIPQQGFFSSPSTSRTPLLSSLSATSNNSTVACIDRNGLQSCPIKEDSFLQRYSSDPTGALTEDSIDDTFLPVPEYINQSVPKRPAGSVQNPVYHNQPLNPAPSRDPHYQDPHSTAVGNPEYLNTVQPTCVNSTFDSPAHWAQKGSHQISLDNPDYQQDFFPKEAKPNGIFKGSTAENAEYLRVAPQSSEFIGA

Biological target: EGFR (UniProt P00533)

Row | IC50 | Structure (SMILES)
1 | 60 nM | COc1cc2ncnc(Nc3cccc(F)c3)c2cc1OC
2 | 2 nM | COc1cc2ncnc(Nc3cccc(Cl)c3)c2cc1OC
